Assay results published in patent US20230190967A1, “Method and Composition for Evaluating Response to Neurodegenerative Disease Treatment Agent” (GENUV INC., priority 2020, published 2023).

System: 8-month-old 5XFAD mouse brain cortex
Settings: 8-month-old 5XFAD cortex, 0.1 mg/kg/day
Description: Age-matched wild-type (WT) mice were orally administered vehicle for 2.5 months. Blood was obtained from all the mice at the age of 8 months after completion of the treatment and collected in EDTA tubes, which were centrifuged to obtain plasma. Mice were sacrificed by the perfusion method, and the brain cortex was extracted and immediately frozen.
Single-cell RNA sequencing analysis was performed on the 8-month-old 5XFAD mouse and wild type mouse brain cortex samples. The cortex was microdissected in HABG (Hibernate A buffer including B27 supplement and glutamine) media and digested in papain solution for 20 min at 37° C. (Brewer et al (2007). Isolation and culture of adult neurons and neurospheres. Nat Protoc 2, 1490-1498). Using a Pasteur pipette, the digested cortex was gently triturated. Cells were isolated by the density gradient method using OptiPrep (Sigma-Aldrich, D1556).
The cell suspension was diluted with Drop-seq buffer, and Drop-seq was performed using the Chromium™ Single Cell 3′ v2 Reagent Kit (Campbell et al. (2017). A molecular census of arcuate hypothalamus and median eminence cell types. Nat Neurosci 20, 484-496). Libraries were sequenced on the Illumina HiSeq X Ten, and Read 1 was 16 bp (10×™ Barcode and 10 bp UMI). Cells with either very low or too high mRNA content (to only include: 200<gene number <3,000) or a high fraction of mitochondrial encoded transcripts (>20%) were filtered out. Using 20,056 cells, raw sequence data were aligned to the mouse (mm10) genome, and analyses including PCA, t-SNE, and graph-based clustering were performed with the Cell Ranger Single-Cell software.
In addition to the microglial cells, the other brain cell types were also analyzed for the genes differentially expressed between the experimental groups.

CC(=O)Nc1cccc(-n2c(=O)n(C3CC3)c(=O)c3c(Nc4ccc(I)cc4F)n(C)c(=O)c(C)c32)c1 [trametinib, N-(3-{3-cyclopropyl-5-[(2-fluoro-4-iodophenyl)amino]-6,8-dimethyl-2,4,7-trioxo-3,4,6,7-tetrahydropyrido[4,3-d]pyrimidin-1(2H)-yl}phenyl)acetamide]
Log2(5XFAD-Tra0.1/5XFAD-Veh) Dbi (Acyl-CoA-binding protein) (M. Neu (mature neuron)): −1.719 | Log2(5XFAD-Tra0.1/5XFAD-Veh) Syt1 (Synaptotagmin-1) (M. Neu (mature neuron)): 1.127 | Fold change Acta2, 5XFAD-Tra 0.1 vs. 5XFAD-vehicle (microglia cluster): 1.513 | Fold change Cst7, 5XFAD-Tra 0.1 vs. 5XFAD-vehicle (microglia cluster): −1.1315 | Fold change Ptgds, 5XFAD-Tra 0.1 vs. 5XFAD-vehicle (microglia cluster): 1.704 | Fold change Rpl9-ps6, 5XFAD-Tra 0.1 vs. 5XFAD-vehicle (microglia cluster): 1.591 | Fold change Rpl10-ps3, 5XFAD-Tra 0.1 vs. 5XFAD-vehicle (microglia cluster): 1.632 | Fold change Spp1, 5XFAD-Tra 0.1 vs. 5XFAD-vehicle (microglia cluster): −1.5648 | Fold change Wfdc17, 5XFAD-Tra 0.1 vs. 5XFAD-vehicle (microglia cluster): −1.5194
